The results in this text go back to PMC8654833 (Scientific Reports, 2021).

By UniProt entry, the sequences of proteins in these tests, tags left out.
UniProt P41595, whole entry, species assumed: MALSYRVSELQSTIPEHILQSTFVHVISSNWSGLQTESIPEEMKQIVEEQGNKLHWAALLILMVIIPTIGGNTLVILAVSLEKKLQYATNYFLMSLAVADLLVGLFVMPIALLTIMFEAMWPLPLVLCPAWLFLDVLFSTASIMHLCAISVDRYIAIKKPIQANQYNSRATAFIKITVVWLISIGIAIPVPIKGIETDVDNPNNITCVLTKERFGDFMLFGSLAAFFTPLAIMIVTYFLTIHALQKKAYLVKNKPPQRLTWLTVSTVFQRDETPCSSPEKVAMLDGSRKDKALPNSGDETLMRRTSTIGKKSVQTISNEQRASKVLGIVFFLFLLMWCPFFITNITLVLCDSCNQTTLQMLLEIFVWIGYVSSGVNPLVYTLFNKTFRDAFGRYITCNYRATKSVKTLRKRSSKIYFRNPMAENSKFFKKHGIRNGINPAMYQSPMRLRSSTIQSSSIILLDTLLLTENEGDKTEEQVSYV

The assay deals with 5-HT2B (Homo sapiens, UniProt P41595). In words: biochemical.

The structures appear in SMILES notation.

On to `CC(N)Cc1c[nH]c2ccc(OCc3cccs3)cc12` (stereo not shown) [BW, 1-[5-(thiophen-2-ylmethoxy)-1H-indol-3-yl]propan-2-amine], for which half-maximal inhibition (IC50) was put at 31.6 nM.
